Data on one compound can be found in patent US9149530B2, “Compositions and methods for enhancing active agent absorption” (Nexus Pharma, Inc., priority 2006, dated 2015).

The subject of the assay is Sprague-Dawley rats. Nature of the assay: Blood glucose depression after intracolonic bovine pancreatic insulin given with absorption enhancer. In kind it is in vivo. The note with it: n=3.

For the compound `CCCCCCNC(=O)c1ccc(NC(=O)CCC(=O)O)cc1O` [Example 16, N-n-hexyl 4-(3-carboxy-propionylamino)-2-hydroxybenzamide], the “blood glucose profile, dependence on enhancer dose” value was “increasing the dose of absorption enhancer results in greater decreases in blood glucose”.
